Assays:
[1] = system: cells with dysfunctional SDH activity; details: cells grown continuously with TTFA, medium with excess pyruvate and uridine
[2] = system: HCT116 cells; details: spheroids, 1 mM, 24 hours
[3] = system: PHD (HIFα prolyl hydroxylase); assay: In vitro PHD activity (hydroxylation of in vitro-translated HA-ODDD by cell extracts, gel shift on SDS-PAGE); format: biochemical, human
[4] = system: HEK293 cells; assay: Measurement of intracellular α-ketoglutarate (glutamate dehydrogenase assay); format: cell-based, human; details: 1 mM, 5 hours, 48 hours after transfection

| Compound | Cell death (viability by MTT) in cells with dysfunctional SDH activity [1] | Growth of spheres in three dimensions [2] | Hydroxylation of HA-ODD [3] | Rise in intracellular α-ketoglutarate in SDH-deficient (Di3) cells relative to rise in scrambled control-transfected cells [4] |
| --- | --- | --- | --- | --- |
| O=C(O)CCC(=O)C(=O)OCc1cccc(C(F)(F)F)c1 [TFMB-α-ketoglutarate, 2-Oxopentanedioic acid 1-(3-trifluoromethyl-benzyl)ester] | significant death | inability of cells to sustain growth in three dimensions |  |  |
| O=C(O)CCC(=O)C(=O)O [free α-ketoglutaric acid, 2-Oxo-pentanedioic acid, reference compound] |  |  | near maximal hydroxylation of HA-ODD |  |
| CCCCCCCCOC(=O)C(=O)CCC(=O)O [octyl-α-ketoglutarate, 2-Oxo-pentanedioic acid 1-octyl ester] | significant death | inability of cells to sustain growth in three dimensions |  | two-fold rise |

Source: patent publication US20090005437A1, “Alpha-Ketoglutarates and Their Use as Therapeutic Agents” (priority 2004, published 2009)
